In this assay the target is T1, RPA70, endogenous, in HEK293T cell extracts.
T1 construct: also called RPA1
The assay can be described thus: GST pull-down from HEK293T cell extracts, western blot [panel B]. Background: In western blotting, separated proteins are transferred to a membrane and probed.

B1: GST-fused GRB2 SH2 domain (other, UniProt P62993 60-152, looked up)
chain: WFFGKIPRAKAEEMLSKQRHDGAFLIRESESAPGDFSLSVKFGNDVQHFKVLRDGAGKYFLWVVKFNSLNELVDYHRSTSVSRNQQIFLRDIE
notes: domain: SH2; also called GST-SH domains; not shown: glutathione S-transferase (GST)
Regarding B1, the binding result is given as “no binding”.

Values taken from patent publication US20230366033A1 (University of Texas, published 2023).
